The text below walks through data of patent US20110269680A1 (PANACEA BIOTEC LIMITED, priority 2008, published 2011).

Protein sequences, listed by entry. Tags and fused reporters are not part of them.
UniProt P27487, whole entry, species assumed: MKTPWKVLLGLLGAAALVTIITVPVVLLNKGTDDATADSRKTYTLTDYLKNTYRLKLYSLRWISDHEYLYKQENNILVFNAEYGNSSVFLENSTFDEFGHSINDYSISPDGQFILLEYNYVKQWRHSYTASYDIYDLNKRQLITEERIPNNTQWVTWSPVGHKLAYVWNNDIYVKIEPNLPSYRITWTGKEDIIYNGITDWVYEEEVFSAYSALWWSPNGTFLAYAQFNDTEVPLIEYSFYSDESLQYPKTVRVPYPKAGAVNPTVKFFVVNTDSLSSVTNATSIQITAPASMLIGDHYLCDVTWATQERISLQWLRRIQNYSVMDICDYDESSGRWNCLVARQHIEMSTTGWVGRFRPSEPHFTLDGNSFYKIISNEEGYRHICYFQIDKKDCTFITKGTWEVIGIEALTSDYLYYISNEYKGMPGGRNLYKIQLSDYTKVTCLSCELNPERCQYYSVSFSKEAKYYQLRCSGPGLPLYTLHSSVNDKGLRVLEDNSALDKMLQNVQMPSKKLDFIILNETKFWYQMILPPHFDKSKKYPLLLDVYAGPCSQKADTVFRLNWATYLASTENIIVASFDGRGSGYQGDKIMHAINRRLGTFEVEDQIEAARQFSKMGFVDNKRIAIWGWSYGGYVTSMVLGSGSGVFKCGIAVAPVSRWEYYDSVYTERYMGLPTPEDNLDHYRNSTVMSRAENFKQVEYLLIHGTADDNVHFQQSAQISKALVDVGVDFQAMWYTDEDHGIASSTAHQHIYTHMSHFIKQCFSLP

This series has as its target T1, DPP-IV (Homo sapiens, UniProt P27487).
T1 construct: purchased Sigma-Aldrich
Briefly: DPP-IV resistant assay. Format: in vitro ADME. To be noted: 20 μM peptide, 60 mU/2 ml DPP-IV, room temperature (22-24° C.), 20 mM Tris HCl pH 8.0, RP-HPLC. The protocol:
20 μM of peptides of the present invention (Sequence IDs—01, 02, 03, 04, 05, 06, 11, 12 and 13) were incubated with 60 mU/2 ml of DPP-IV (Sigma-Aldrich) enzyme at room temperature (22-24° C.) in 20 mM Tris HCl buffer, pH 8.0. The aliquots were analyzed for the amount of undegraded peptide concentration at different time intervals by RP-HPLC. The peak area integration was used to determine the amount of undegraded peptide (U.S. Pat. No. 7,067,488). T1/2 of each peptide was determined from the graph plotted between peak area of undegraded peptide vs. time. The peak area of DPP-IV untreated peptide in above mentioned buffer condition of same concentration was considered as time zero. […]

As to “GLP-1(7-37) [GLP-1(7-37) parent, reference compound]”, the “T1/2 in Hrs” value is 2.84 h.
